Laboratory results: paper PMC5735191, “Computational and biological profile of boronic acids for the detection of bacterial serine- and metallo-β-lactamases” (Scientific Reports, 2017)

System: CC1(C)S[C@@H]2[C@H](NC(=O)[C@H](N)c3ccccc3)C(=O)N2[C@H]1C(=O)O
Test: purified protein, by the assay type
Settings: other: β-lactam substrate of KPC-2, enzyme […]; 37.0 °C

Work on KPC-2 (Klebsiella pneumoniae) yielded a Km of 55 ± 7 µM, a kcat of 200 ± 40 s⁻¹ and a kcat/Km of 3.64e+06 M⁻¹ s⁻¹.
